From publication PMC9407234 (Proceedings of the National Academy of Sciences of the …, 2022)

Target: replication protein A (RPA), full-length heterotrimer of RPA70, RPA32 and RPA14
Experiment: ITC

B1: XPA M70-2 (E106K/F112A), full length (natural protein)
chain: MAAADGALPEAAALEQPAELPASVRASIERKRQRALMLRQARLAARPYSATAAAATGGMANVKAAPKIIDTGGGFILEEEEEEEQKIGKVVHQPGPVMEFDYVICKECGKEAMDSYLMNHFDLPTCDNCRDADDKHKLITKTEAKQEYLLKDCDLEKREPPLKFIVKKNPHHSQWGDMKLYLKLQIVKRSLEVWGSQEALEEAKEVRQENREKMKQKKFDKKVKELRRAVRSSVWKRETIVHQHEYGPEENLEDDMYRKTCTMCGHELTYEKM
In the case of B1, the Kd is reported as 11 ± 0.5 µM, the dH is reported as -9.08 ± 0.693 kcal/mol and the “stoichiometry N” value is reported as 2 ± 0.3.
